# Data as given in patent publication US9814918B2, “Microbial deactivation of explosive compositions” (dated 2017).
# Test system: Gibberella moniliformis CD611
# Experiment: Induction of nitroglycerin-degrading activity in Gibberella moniliformis CD611
# Conditions: 0.5 mM TNT, 0.5 mM NEM, 0.25 mM MD, 1 mM 3HC; 29 h
row,Compound,growth of G. moniliformis CD611 in the presence of the compound
1,O=c1oc2ccccc2cc1O,Growth was inhibited
2,CCN1C(=O)C=CC1=O,Growth was inhibited
3,CC1=CC(=O)c2ccccc2C1=O,Growth was inhibited
